Measured values published in patent US20260008801A1, “BIO-BASED SURFACTANTS DERIVED FROM CARBOHYDRATES” (COÖPERATIE KONINKLIJKE COSUN U.A., priority 2022, published 2026).

Legend:
[1] = Foaming abilities, 1% compound solutions shaken by hand; format: physicochemical; set-up: key: −: no foam formation; +: low foam formation; ++: moderate foam formation; +++: strong foam formation; settings: Table E7
Procedure: Foaming abilities were evaluated at room temperature by shaking 1% compound solutions (2 ml) of pH 3, 7, and 12 by hand for 10 s. The pH of each solution was assessed with a pH meter at room temperature. […] The foam heights at the initial time were compared to one another after which the foaming abilities were classified according to no foam formation (−), low foam formation (+), moderate foam formation (++), and strong foam formation (+++).

[2] = Surface tension measurements, Wilhelmy plate (surface tension, CMC); format: physicochemical; settings: Table E7
Procedure: Surface tension measurements were performed with a Biolin Scientific Sigma701 automatic tension meter equipped with a Wilhelmy plate made of platinum (±0.5 mN/m). At room temperature and a pH of 7, different concentrations of aqueous solutions (0.01%-max. 12.5%; 4 ml) of synthesized compounds and of commercially available surfactants (SLES, which is sodium laureth sulfate, and SCG, which is sodium cocoyl glutamate) were measured continuously (30 sec) (‘continuous Wilhelmy plate’ method) using small plastic petri dishes. The number of experimental points is related to the compound's/surfactant's solubility and available quantity. All compound/surfactant solutions were allowed to stand 12 h before being measured. The platinum plate was thoroughly cleaned with demi water and flame-dried before each measurement. The CMC of each compound/surfactant was determined at the minimum of a breakpoint of a conventional plot of surface tension versus compound/surfactant concentration. DCMC was obtained by acquiring the surface tension at the CMC. The pC20 value was determined by taking the minus log of the concentration compound/surfactant at a surface tension of 52 mN/m.

[3] = Solubility in water (excess of compound in 4 ml demi water); settings: Table E7, commercially available surfactants

## sodium cocoyl glutamate [SCG, reference compound]
[1]
  FOAM: ++
[2]
  SURFACE TENSION: 36.6 mN/m
[3]
  SOLUBILITY (H2O): Yes
